Measured values from publication PMC12440827 (Nature structural & molecular biology, 2025).

Amino acid sequences for entries named in this document (tags omitted). A change or cut given only in a name is not applied to a line headed by its entry.
UniProt O75143: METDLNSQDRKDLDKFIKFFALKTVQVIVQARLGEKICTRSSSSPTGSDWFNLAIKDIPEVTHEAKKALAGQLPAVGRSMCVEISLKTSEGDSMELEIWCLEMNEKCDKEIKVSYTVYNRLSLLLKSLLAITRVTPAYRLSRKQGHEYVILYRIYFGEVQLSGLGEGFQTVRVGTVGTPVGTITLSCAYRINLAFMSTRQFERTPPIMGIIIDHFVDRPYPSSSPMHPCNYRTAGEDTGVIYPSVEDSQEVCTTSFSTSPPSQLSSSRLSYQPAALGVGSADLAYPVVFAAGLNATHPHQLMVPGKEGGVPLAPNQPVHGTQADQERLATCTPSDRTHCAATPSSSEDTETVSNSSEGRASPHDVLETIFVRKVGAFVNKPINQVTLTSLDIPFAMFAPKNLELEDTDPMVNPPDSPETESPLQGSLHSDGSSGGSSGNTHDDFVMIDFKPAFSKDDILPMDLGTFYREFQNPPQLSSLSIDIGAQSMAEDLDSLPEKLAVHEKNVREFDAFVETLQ

What was measured:
[1] = target: FIP200n (FIP200 1-640) of the mass photometry samples (human) (UniProt Q8TDY2); experiment: mass photometry; measurement ix: cross-linked at 1000 nM, without PI3KC3-C1; diluted to 10 nM for measurement
[2] = target: FIP200n (FIP200 1-640) of the mass photometry samples (human) (UniProt Q8TDY2); experiment: mass photometry; measurement vi: cross-linked at 10 nM with 5 nM PI3KC3-C1; measured at 10 nM
[3] = target: FIP200n (FIP200 1-640) of the mass photometry samples (human) (UniProt Q8TDY2); experiment: mass photometry; measurement viii: cross-linked at 200 nM with 100 nM PI3KC3-C1; diluted to 10 nM for measurement
[4] = target: FIP200n (FIP200 1-640) of the mass photometry samples (human) (UniProt Q8TDY2); experiment: mass photometry; measurement v: cross-linked (glutaraldehyde) at 10 nM, without PI3KC3-C1; measured at 10 nM
[5] = target: FIP200n (FIP200 1-640) of the mass photometry samples (human) (UniProt Q8TDY2); experiment: mass photometry; measurement x: cross-linked at 1000 nM with 500 nM PI3KC3-C1; diluted to 10 nM for measurement
[6] = target: FIP200n (FIP200 1-640) of the mass photometry samples (human) (UniProt Q8TDY2); experiment: mass photometry; measurement vii: cross-linked at 200 nM, without PI3KC3-C1; diluted to 10 nM for measurement
[7] = target: FIP200n (FIP200 1-640) of the mass photometry samples (human) (UniProt Q8TDY2); experiment: mass photometry; measurement iv: FIP200n with MBP-ATG13(450-517)-ULKc; concentration of mixing and cross-linking not told; measured at 10 nM

MBP-ATG13c-ULK1c fusion (ATG13 363-517, ULK1 MIT) (from UniProt O75143 363-517; O75385 836-1050)
% of the population as ULK1C 2:1:1 complex [1]: 25% | % of the population as ULK1C 2:2:2 complex [1]: 33% | % of the population as ULK1C 2:1:1 complex [2]: 30% | % of the population as ULK1C 2:2:2 complex [2]: 5% | % of the population as ULK1C 2:1:1 complex [3]: 29% | % of the population as ULK1C 2:2:2 complex [3]: 13% | % of the population as ULK1C 2:1:1 complex [4]: 33% | % of the population as ULK1C 2:2:2 complex [4]: 4% | % of the population as ULK1C 2:1:1 complex [5]: 18% | % of the population as ULK1C 2:2:2 complex [5]: 23% | % of the population as ULK1C 2:1:1 complex [6]: 35% | % of the population as ULK1C 2:2:2 complex [6]: 17%

MBP-ATG13(450-517)-ULKc fusion (from UniProt O75143 450-517; O75385 836-1050)
% of the population as ULK1C 2:1:1 complex [7]: 20% | % of the population as ULK1C 2:2:2 complex [7]: 25%
